Measurements published in ChEMBL document CHEMBL2429814 (J Med Chem, 2013).
Calls of active or inactive are those of the source. The rule behind the calls is not given here.

Sequences of proteins named here, by UniProt entry; tags and fusion partners are left off.
Metabotropic glutamate receptor 5 (Rattus norvegicus), P31424, UniProt P31424, whole entry Y658V: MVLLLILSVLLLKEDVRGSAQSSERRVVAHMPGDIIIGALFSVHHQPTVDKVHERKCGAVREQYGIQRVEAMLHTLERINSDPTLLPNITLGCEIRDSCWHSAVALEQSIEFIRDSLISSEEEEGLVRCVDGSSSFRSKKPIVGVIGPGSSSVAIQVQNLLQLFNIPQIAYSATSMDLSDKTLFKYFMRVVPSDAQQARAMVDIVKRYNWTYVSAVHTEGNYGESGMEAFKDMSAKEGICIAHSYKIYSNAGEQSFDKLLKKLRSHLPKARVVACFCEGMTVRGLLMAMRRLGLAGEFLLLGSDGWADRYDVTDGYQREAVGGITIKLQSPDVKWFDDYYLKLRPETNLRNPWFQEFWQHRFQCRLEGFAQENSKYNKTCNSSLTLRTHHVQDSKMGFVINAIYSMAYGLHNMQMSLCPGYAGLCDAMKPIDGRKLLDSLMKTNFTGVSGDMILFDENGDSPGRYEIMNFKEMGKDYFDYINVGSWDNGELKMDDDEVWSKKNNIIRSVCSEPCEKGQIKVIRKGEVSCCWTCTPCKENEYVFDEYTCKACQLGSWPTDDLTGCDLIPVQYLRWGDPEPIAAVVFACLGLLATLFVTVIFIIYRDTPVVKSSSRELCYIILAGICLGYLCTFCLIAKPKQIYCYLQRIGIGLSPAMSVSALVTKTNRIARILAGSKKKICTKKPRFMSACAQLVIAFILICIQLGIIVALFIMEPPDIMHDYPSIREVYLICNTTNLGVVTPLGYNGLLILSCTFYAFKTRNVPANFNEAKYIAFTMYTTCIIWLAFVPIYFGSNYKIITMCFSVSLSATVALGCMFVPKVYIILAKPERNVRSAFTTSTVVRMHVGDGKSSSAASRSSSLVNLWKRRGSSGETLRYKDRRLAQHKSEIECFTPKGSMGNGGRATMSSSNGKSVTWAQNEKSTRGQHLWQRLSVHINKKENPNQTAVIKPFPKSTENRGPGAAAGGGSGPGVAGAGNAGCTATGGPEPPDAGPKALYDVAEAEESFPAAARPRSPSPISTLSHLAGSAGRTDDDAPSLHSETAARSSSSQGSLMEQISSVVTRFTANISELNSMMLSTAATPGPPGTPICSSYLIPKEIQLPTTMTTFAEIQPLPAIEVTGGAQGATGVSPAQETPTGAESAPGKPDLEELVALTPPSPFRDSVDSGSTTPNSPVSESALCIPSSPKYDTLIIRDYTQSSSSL

Key:
[1] = tested on: Metabotropic glutamate receptor 5 (Rattus norvegicus), P31424 [Y658V]; assay type: cell-based; settings: HEK293
[2] = tested on: Metabotropic glutamate receptor 5 (Rattus norvegicus), P31424 [Y658V]; assay type: functional, cell-based; settings: HEK293, 1 to 100 uM

C[C@@H](NC(=O)c1ccc(C#Cc2ccccn2)cn1)C(C)(C)O
Activity [1]: inactive
Activity [2]: inactive
